Assay results: patent publication US4783441A, “Aqueous protein solutions stable to denaturation” (Hoechst Aktiengesellschaft, priority 1979, dated 1988)

Experiments:
Type in all cases: physicochemical
[1] = Shaking test of albumin solutions at 37° C. (turbidity from denatured protein), Example 1b; settings: 0.1% solution in 0.01M phosphate buffer pH 7, shaken at 37° C.
From the text: The two former samples became strongly turbid after 7 and 30 days, respectively, resulting from denatured protein.

[2] = Shaking test of human fibroblast interferon solution, biological activity, Example 14
Experimental: In the five former samples a loss of more than 97% of the biological activity was determined after 2 days.

[3] = Adsorption of human fibroblast interferon on polystyrene beads, biological activity in filtrate, Example 15
Experimental: 10 ml of an aqueous suspension of polystyrene beads (Dow Latex®) having an average diameter of 0.481 μm were divided in two aliquots, one of which remained untreated, while the other was shaken for two days at room temperature with 50 mg of block polymer consisting of a linear 1.2-polypropylene glycol chain with an average molecular weight of 1750 (Dalton), to which on each side 10% of polyethylene glycol had been attached by polymerisation. The excess block polymer was then removed by dialysis against an aqueous solution containing 150 ppm of the same polymeric, surface-active substance.
Two samples of 3 ml each of a solution of 10 000 units of human fibroblast interferon in a phosphate buffer, pH 7, were prepared and each soluton was shaken at 5° C. for 20 hours with 500 μl each of the untreated polystyrene suspension or the polystyrene suspension treated as described above, the latter still containing 150 ppm of the block polymer. […] The biological activity of the interferon in the filtrate was determined. In the solutions which were in contact with the untreated polystyrene beads, less than 1% of the calculated activity was determined. In the solutions which were in contact with the polystyrene beads treated as described above, more than 95% of the activity which was determined at the beginning of the test were retained.

human albumin: human albumin, 0.1% solution
appearance of sample containing stabilizer ([1]; with 10 ppm block polymer (polypropylene glycol MW 1,750, 5% polyethylene glycol on each side)): still limpid after several month | time after which sample became strongly turbid (denatured protein) ([1]; without stabilizer): 30 days

human fibroblast interferon: human fibroblast interferon
loss of biological activity ([2]; 5000 units in phosphate buffer pH 7, shaken at 37° C., after 2 days, without stabilizer): more than 97% | biological activity in samples containing stabilizer ([2]; shaken at 37° C., with 10 ppm block polymer (1.2-PPG MW 1750, 5% PEG each side)): unchanged, even after several weeks | activity in samples containing stabilizer ([2]; shaken at room temperature, with 10 ppm block polymer stabilizer): remained unchanged after several weeks | biological activity in filtrate, of the calculated activity ([3]; 10 000 units in phosphate buffer pH 7, shaken at 5° C. for 20 hours with untreated polystyrene beads): less than 1% | biological activity retained in filtrate, of activity at beginning of test ([3]; shaken at 5° C. for 20 hours with polystyrene beads treated with block polymer (1.2-PPG MW 1750, 10% PEG each side), 150 ppm present): more than 95%
